Values of other authors as cited in paper PMC5570449.

By UniProt entry, the sequences of proteins in these tests, tags left out. Residues count along the entry.
UniProt Q96RL1, 77-102: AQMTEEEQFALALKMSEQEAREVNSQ
UniProt Q96RL1, 102-127: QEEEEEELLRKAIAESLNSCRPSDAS

Columns and labels:
ubiquitin (Homo sapiens) [1] = target: ubiquitin (Homo sapiens) (UniProt P0CG48)
ubiquitin (Homo sapiens) [2] = target: ubiquitin (Homo sapiens) (UniProt P0CG48); remark: listed apart in the source

Kd (ubiquitin (Homo sapiens) [1]) | Kd (ubiquitin (Homo sapiens) [2]) | Substance
520 µM |  | RAP80 UIM1 UIM1 (from UniProt Q96RL1)
 | 510 µM | RAP80 UIM2 UIM2 (from UniProt Q96RL1)

Where two headings read alike, the source gives them in different places.
